The numbers were not newly measured in patent publication US6069167A, “Use of antioxidant agents to treat cholestatic liver disease” (priority 1997, dated 2000), which cites them from elsewhere.

For series [1] the following is noted: cited from earlier work.
For series [2] the following is noted: cited from earlier work. The source holds these as a separate data set.

Turning to “D-alpha-tocopheryl polyethylene glycol-1000 succinate [TPGS]”, the “Absorption during severe cholestasis” value in series [1] is “the only form of Vitamin E that is absorbed during severe cholestasis”. Also, the “Intestinal absorption of other fat-soluble substances (cyclosporin, Vitamin D)” value in series [1] (when bile flow is impaired) is given as “can improve the intestinal absorption of other fat-soluble substances”. Besides, the Micelle formation entry in series [2] (absence of bile salts) is listed as “form micelles in the absence of bile salts”. The Water solubility entry in series [2] is “uniquely water-soluble”.
